Laboratory results published in ChEMBL document CHEMBL2029249, “N-Methyl-3-(tetrahydro-2H-pyran-4-yl)-2,3,4,9-tetrahydro-1H-carbazole-6-carboxamides as a novel class of cannabinoid receptors agonists with low CNS penetration” (Bioorg Med Chem Lett, 2012).

Chains of the proteins cited; added tags and fusions are not shown.
UniProt P21554, whole entry: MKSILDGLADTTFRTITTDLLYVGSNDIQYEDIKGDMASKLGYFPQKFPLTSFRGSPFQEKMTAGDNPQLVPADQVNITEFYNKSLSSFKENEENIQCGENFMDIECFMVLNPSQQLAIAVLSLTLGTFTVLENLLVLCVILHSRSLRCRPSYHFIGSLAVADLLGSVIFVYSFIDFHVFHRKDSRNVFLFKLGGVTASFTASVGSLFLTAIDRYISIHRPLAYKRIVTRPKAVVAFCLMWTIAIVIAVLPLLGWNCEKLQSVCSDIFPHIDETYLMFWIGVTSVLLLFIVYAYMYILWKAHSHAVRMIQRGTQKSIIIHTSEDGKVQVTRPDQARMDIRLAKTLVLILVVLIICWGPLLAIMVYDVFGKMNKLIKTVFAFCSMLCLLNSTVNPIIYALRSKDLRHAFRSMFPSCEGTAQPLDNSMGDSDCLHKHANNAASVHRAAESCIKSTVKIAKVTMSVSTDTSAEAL

Target: Cannabinoid receptor 1 (Homo sapiens, UniProt P21554)
Assay: Agonist activity at human CB1 receptor expressed in HEK293 cells assessed as [35S]GTPgamma binding
Format: functional, cell-based

CCCCCOc1ccc(C(=O)c2cccc3ccccc23)c2ccccc12
EC50: 73 nM
